Experimental data taken from PubChem BioAssay AID602282 (Johns Hopkins Ion Channel Center, 2012).
The entries are a selection whose mix differs from that of the whole data set. The source made the active and inactive calls.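 The calls were made as follows: active = inhibition above 3 SD of the buffer control wells (cut at about 41% in these data); inactive = the rest.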

Experiment: inhibition of M3R-evoked calcium signal on retest – cell-based, HEK293 M3R/RGS4 inducible, calcium flux, duplicate, RGS4 activator project, confirmation (AID 602282);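 also: signal is the integrated peak-minus-minimum Fluo4 fluorescence over baseline ratio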
Settings: carbachol calcium flux Fluo4, at 10 µM, stronger effect = higher value

| Compound | inhibition |
| --- | --- |
| O=C(OC1CN2CCC1CC2)C1c2ccccc2C=Cc2ccccc21 (stereo not drawn) | active: 91% |
| COc1cc(C(=O)NCC2(N3CCCCC3)CCCCC2)ccc1OC(F)F | active: 65.5% |
| CCOc1ccc(C)cc1CN(CCCl)CCCl | active: 92.5% |
